# Apparent affinities of Ab-14 variants for a coronavirus HR2 peptide

Reference: Li et al. 2023, doi:10.1038/s41467-023-39022-2. File: FLAb, binding data.

The target is the same throughout: PDVDLGDISGINAS, from the HR2 region of SARS-CoV-2 spike.

Parent: Ab-14, a human scFv built as VH, three GGGGS repeats, VL. Only the CDRs of the light chain vary.
VH: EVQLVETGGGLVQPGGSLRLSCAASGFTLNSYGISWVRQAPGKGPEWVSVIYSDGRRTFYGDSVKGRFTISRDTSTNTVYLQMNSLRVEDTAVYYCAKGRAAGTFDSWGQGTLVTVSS
VL: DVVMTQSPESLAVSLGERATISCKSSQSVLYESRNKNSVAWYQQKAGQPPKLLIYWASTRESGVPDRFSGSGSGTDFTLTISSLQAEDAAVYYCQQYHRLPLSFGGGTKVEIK

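These sequences belong to a second round, designed from the earlier measurements on random variants of the parent. Several design methods are mixed in this list. In AlphaSeq, yeast of one mating type display the scFv and yeast of the other type display the target. The frequency of each diploid, read from paired DNA barcodes, reflects how well the two displayed proteins bind. The ratio of observed to expected reads was calibrated, replicate by replicate, on BCL2-family standards whose Kd was known from biolayer interferometry. Mating was done six times.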

Positions count from residue 1 of the parent VL; S25L puts L in place of S.
This list holds designs with at most six substitutions.
The read-out is the apparent dissociation constant on a log10 scale (nM): the lower, the stronger.
A mean of the replicates is given; it leaves out those without a signal.
Where no diploid with the target was found in any replicate, the entry reads "no signal": below detection, most likely a poor binder, though not proof of it.
Values of this round are not directly comparable with the first-round values of the same sequences.

Variant S25L/V29Q/L30W/K36S/W56N/T59N showed -0.18 (6 of 6 replicates). With S25V/Q27I/V29N/Y31L/W56E the result was -0.14 (6 of 6 replicates). Variant S25V/V29C/W56N/T59Q gave 0.77 (6 of 6 replicates). For K24N, the assay gave 2.22 (3 of 6 replicates). For S25Q/V29D/W56D, the assay gave -0.41 (6 of 6 replicates). Variant S25L/S26D/N35D/W56H/S62D gave -0.10 (6 of 6 replicates). For K36D/W56Q, the assay gave 0.17 (6 of 6 replicates). With V29G/W56E the result was -0.21 (12 of 12 replicates). Variant S25L/S26P/V29C/W56E gave 0.11 (6 of 6 replicates).

With N35F/W56S the result was 1.16 (6 of 6 replicates). Variant V29G/L30E/Y31M/S38N/W56D/T59Q gave -0.43 (6 of 6 replicates). Variant S25L/Q27N/N35M/W56H/R99H showed 0.47 (6 of 6 replicates). Variant S25Y/V29Y/W56G showed -0.08 (6 of 6 replicates). With K24S/L30P/W56N/S62E the result was 0.26 (6 of 6 replicates). Variant S25L/V29Y/W56E/S62V showed -0.48 (6 of 6 replicates). Variant S25Q/L102C/S103W gave 1.85 (3 of 6 replicates). Variant Q27A/V29Y/Y31E/W56E showed -0.34 (6 of 6 replicates). Variant S25I/V29M/L30E/K36V/W56Y/S62V showed 0.45 (6 of 6 replicates).

Variant S25V/V29M/L30P/W56D showed -0.10 (6 of 6 replicates). With S25L/V29M/S38N/W56D the result was -0.22 (6 of 6 replicates). Variant S25A/V29W/L30I/W56G gave -0.32 (6 of 6 replicates). For S33E/W56H, the assay gave 0.83 (6 of 6 replicates). For S25F/V29D/W56E/T59Q, the assay gave -0.11 (6 of 6 replicates). Variant S25F/S28Q/N35T/W56N showed -0.22 (6 of 6 replicates). Variant R99K showed 1.25 (6 of 6 replicates). Variant K24H/S25V/Q27P/W56N/S103Q gave -0.20 (6 of 6 replicates). For S28A/V29T, the assay gave no signal (0 of 6 replicates).

Variant V29W/W56N/T59Q/E61L gave -0.43 (6 of 6 replicates). With S25I/W56D/A57G the result was -0.20 (6 of 6 replicates). For S25L/S26D/V29E/W56N, the assay gave -0.06 (6 of 6 replicates). Variant S25M/S26P/V29E/W56N/E61M gave -0.01 (6 of 6 replicates). Variant K24I/S25L/V29M/W56N/T59Q/E61W gave -0.10 (6 of 6 replicates). For R34C/S62L, the assay gave 2.65 (1 of 6 replicates). Variant S25A/S26L/Q27F/N35D/W56H/S62D gave 0.59 (6 of 6 replicates). For V29W/W56E/Q95D, the assay gave 0.16 (5 of 6 replicates). Variant S25L/S26M/W56N/T59Y gave -0.20 (6 of 6 replicates).

For S25N/L30K/Y31F/W56D, the assay gave 0.18 (6 of 6 replicates). Variant Q27K/V29E/Y31F/W56N gave -0.29 (6 of 6 replicates). For S25F/Q27D/Y31L/N35T/W56E, the assay gave -0.21 (6 of 6 replicates). Variant L30F/Y31E/W56Q gave 0.29 (6 of 6 replicates). For W56Q/H98Y/S103G, the assay gave 0.26 (6 of 6 replicates). Variant S25I/S26M/L30T/Y31E/R34L/S58Q showed 1.34 (6 of 6 replicates). For V29F/Y31A/S38M/W56G/P101T, the assay gave no signal (0 of 6 replicates). Variant S28Q/V29E/R34Q/W56K/S62L showed 0.85 (6 of 6 replicates).

For reference, 4 entries of the list once more:

{"changes": "S25L/V29Q/L30W/K36S/W56N/T59N", "mean, log10 nM": "-0.18", "seen in": "6/6"}
{"changes": "S25L/S26M/W56N/T59Y", "mean, log10 nM": "-0.20", "seen in": "6/6"}
{"changes": "V29W/W56N/T59Q/E61L", "mean, log10 nM": "-0.43", "seen in": "6/6"}
{"changes": "S28Q/V29E/R34Q/W56K/S62L", "mean, log10 nM": "0.85", "seen in": "6/6"}

Three control strains display no target. For all light chain designs, 4% of the pairings with them gave a signal, with a median of 2.64 and one signal in twenty below 1.59, so weak values seen in few replicates may be background.
Some sequences occur more than once in the pool; their replicates are pooled.
In the paper, a design with two or fewer of six values counts as a poor binder.
Of ten entries with the parent sequence, four were seen in most replicates (averages 0.34 to 2.37), three in one and three in none, so single entries are noisy.